# Experimental data: US20080181848A1 (priority 2004, published 2008)
# By UniProt entry, the sequences of proteins in these tests, tags left out.
# UniProt P61169, whole entry: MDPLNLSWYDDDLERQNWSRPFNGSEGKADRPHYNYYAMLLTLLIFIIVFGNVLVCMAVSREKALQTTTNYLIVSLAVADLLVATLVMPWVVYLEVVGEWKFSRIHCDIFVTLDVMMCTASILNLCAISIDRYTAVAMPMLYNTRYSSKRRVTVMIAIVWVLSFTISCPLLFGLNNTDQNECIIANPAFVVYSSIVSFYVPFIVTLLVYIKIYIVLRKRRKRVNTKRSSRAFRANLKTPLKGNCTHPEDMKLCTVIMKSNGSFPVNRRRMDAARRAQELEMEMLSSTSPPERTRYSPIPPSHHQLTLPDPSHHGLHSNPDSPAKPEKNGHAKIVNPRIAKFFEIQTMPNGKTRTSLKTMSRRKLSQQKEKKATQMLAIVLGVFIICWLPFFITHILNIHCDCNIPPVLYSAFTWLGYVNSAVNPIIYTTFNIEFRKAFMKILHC
# Tests used:
# D2^High = D2^High (Rattus norvegicus, UniProt P61169); assay: In vitro binding of [3H](+)PHNO in rats sensitized to amphetamine; details: rats sensitized to become supersensitive to amphetamine; tested as the radiolabelled form
# D2 receptors in striatum = D2 receptors in striatum (Rattus norvegicus, UniProt P61169); assay: Binding of intravenously injected radioligand in rat striatum, alone and co-injected with NPA (Examples 2 and 3)
# [1] = radioligand co-injected i.v. with NPA 25 μg/kg, tested as the radiolabelled form
smiles,measurement,setting,value
CCCN1CCO[C@@H]2c3cc(O)ccc3CC[C@H]21,"in vitro binding of [3H](+)PHNO, which labels D2^High",D2^High,increased
same,Control DPM/mg (total binding in striatum),"D2 receptors in striatum; 30 min after i.v. 0.1 nmol radioligand, no NPA, n=6, tested as the radiolabelled form",33.9 DPM/mg
same,Control,"D2 receptors in striatum; 30 min after i.v. 0.1 nmol radioligand, no NPA, tested as the radiolabelled form",3.12 pmol/g
same,pmol/g Displaced by NPA,"D2 receptors in striatum; NPA 25 μg/kg co-injected, tested as the radiolabelled form",1.65 pmol/g
same,With NPA,D2 receptors in striatum; [1],1.47 pmol/g
same,With NPA DPM/mg,D2 receptors in striatum; [1],16.02 DPM/mg
